Results from PMC6520475 (European Journal of Drug Metabolism and Pharmacokinetics, 2018).

Test: Population pharmacokinetic
Settings: final model; 1000 bootstrap iterations, success rate 92.1%

- θ2Vd, bootstrap median: 154 L
SMILES: CN[C@H](CC(C)C)C(=O)N[C@H]1C(=O)N[C@@H](CC(N)=O)C(=O)N[C@H]2C(=O)N[C@H]3C(=O)N[C@H](C(=O)N[C@H](C(=O)O)c4cc(O)cc(O)c4-c4cc3ccc4O)[C@H](O)c3ccc(c(Cl)c3)Oc3cc2cc(c3O[C@@H]2O[C@H](CO)[C@@H](O)[C@H](O)[C@H]2O[C@H]2C[C@](C)(N)[C@H](O)[C@H](C)O2)Oc2ccc(cc2Cl)[C@H]1O [vancomycin]
